Test results taken from patent publication US20060040911A1, “Method for preventing and/or treating the cardiovascular and hepatic diseases induced by hyperlipidemia which comprises administered an effective amount of bioflavonoids extract derived from fructus crataegus (lipid metabolism and fructus crataegus)” (priority 2003, published 2006).

Target: T1, 3-HMG-CoA reductase (Oryctolagus cuniculus, UniProt Q29512)
T1 construct: ultracentrifuged at 100,000 times gram for 60 minutes and again for another 60 minutes to obtain microsomal precipitates; from tissue; host or cells: rabbit liver microsomes
T1 sequence (Q29512 1-888): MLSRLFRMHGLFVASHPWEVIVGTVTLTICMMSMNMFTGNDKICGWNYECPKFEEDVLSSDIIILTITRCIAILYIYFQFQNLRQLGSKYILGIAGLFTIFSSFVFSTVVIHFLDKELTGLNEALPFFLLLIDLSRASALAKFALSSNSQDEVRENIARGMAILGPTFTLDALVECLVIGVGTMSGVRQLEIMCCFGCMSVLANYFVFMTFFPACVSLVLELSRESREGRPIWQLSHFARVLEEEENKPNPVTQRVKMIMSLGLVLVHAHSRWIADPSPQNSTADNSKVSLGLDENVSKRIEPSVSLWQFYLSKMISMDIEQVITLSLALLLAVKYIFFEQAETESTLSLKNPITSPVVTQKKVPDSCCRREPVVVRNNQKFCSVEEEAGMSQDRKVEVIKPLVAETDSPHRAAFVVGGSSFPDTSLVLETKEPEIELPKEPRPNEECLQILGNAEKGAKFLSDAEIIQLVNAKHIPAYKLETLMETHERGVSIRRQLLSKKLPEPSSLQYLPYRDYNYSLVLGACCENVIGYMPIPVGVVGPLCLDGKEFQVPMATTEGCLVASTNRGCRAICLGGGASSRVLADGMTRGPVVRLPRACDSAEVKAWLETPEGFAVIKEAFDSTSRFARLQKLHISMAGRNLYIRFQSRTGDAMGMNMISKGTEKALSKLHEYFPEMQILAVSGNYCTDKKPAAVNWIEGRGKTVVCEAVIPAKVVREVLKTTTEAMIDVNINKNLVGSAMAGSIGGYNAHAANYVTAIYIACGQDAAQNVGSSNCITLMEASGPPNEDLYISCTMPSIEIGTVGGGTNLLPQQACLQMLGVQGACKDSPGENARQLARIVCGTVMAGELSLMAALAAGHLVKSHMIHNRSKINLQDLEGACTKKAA
Experiment: Activity of 3-HMG-CoA reductase in liver microsomes (modified Hulcher's method)
Assay type: biochemical, rabbit
Conditions: liver microsomes of rabbits fed 8 weeks 1% cholesterol plus 0.15% bioflavonoid; control group 0%
Method: The activity of 3-HMG-CoA reductase was determined by modified Hulcher's method (Journal of lipid research; 14, 625-641, 1973), in which the concentration of Co-A will be produced when 3-HMG-CoA is reduced to mevalonate salt by the action of the 3-HMG-CoA reductase; then the reductase was determined by spectroscopy and the activity of the 3-HMG-CoA reductase was calculated.
Liver tissues from each group of rabbits from Example 4 Step B were obtained, 3 gram of tissue was washed with 100 ml of cold normal saline (1 N NaCl) and 100 ml of cold buffer solution-A (0.1M triethanolamine HCl/10 mM EDTA/10 mM dithiothreitol (DTT)). A cold buffered solution-A and liver tissue ratio was 2 ml per each gram. […] The precipitates were washed with cold buffer solution-A and kept at minus 70 degree C. till ready for analysis. […]
The mixture was then added with 20 µl of DTNB buffer solution (3 mM DTNB/0.1M triethanolamine/10 mM EDTA with PH of 7.4). The absorbance of this mixture was determined at wave length of 412 nm to calculate the amount of CoA that is the activity of 3-HMG-CoA reductase. The amount of inhibition on the activity of the 3-HMG-CoA reductase by rutin, quercetin, kaempherol and vitexin were calculated base on the above method.

O=c1c(O)c(-c2ccc(O)cc2)oc2cc(O)cc(O)c12 [Kaempherol, 3,5,7,4′ tetra-hydroxy-flavone]
Inhibition on the activity of 3-HMG-CoA reductase in percentage (%): 30%
